Reference: ChEMBL document CHEMBL2176940, “Discovery of ligands for ADP-ribosyltransferases via docking-based virtual screening” (J Med Chem, 2012)

Protein sequences, listed by entry. Tags and fused reporters are not part of them.
UniProt Q460N5, whole entry: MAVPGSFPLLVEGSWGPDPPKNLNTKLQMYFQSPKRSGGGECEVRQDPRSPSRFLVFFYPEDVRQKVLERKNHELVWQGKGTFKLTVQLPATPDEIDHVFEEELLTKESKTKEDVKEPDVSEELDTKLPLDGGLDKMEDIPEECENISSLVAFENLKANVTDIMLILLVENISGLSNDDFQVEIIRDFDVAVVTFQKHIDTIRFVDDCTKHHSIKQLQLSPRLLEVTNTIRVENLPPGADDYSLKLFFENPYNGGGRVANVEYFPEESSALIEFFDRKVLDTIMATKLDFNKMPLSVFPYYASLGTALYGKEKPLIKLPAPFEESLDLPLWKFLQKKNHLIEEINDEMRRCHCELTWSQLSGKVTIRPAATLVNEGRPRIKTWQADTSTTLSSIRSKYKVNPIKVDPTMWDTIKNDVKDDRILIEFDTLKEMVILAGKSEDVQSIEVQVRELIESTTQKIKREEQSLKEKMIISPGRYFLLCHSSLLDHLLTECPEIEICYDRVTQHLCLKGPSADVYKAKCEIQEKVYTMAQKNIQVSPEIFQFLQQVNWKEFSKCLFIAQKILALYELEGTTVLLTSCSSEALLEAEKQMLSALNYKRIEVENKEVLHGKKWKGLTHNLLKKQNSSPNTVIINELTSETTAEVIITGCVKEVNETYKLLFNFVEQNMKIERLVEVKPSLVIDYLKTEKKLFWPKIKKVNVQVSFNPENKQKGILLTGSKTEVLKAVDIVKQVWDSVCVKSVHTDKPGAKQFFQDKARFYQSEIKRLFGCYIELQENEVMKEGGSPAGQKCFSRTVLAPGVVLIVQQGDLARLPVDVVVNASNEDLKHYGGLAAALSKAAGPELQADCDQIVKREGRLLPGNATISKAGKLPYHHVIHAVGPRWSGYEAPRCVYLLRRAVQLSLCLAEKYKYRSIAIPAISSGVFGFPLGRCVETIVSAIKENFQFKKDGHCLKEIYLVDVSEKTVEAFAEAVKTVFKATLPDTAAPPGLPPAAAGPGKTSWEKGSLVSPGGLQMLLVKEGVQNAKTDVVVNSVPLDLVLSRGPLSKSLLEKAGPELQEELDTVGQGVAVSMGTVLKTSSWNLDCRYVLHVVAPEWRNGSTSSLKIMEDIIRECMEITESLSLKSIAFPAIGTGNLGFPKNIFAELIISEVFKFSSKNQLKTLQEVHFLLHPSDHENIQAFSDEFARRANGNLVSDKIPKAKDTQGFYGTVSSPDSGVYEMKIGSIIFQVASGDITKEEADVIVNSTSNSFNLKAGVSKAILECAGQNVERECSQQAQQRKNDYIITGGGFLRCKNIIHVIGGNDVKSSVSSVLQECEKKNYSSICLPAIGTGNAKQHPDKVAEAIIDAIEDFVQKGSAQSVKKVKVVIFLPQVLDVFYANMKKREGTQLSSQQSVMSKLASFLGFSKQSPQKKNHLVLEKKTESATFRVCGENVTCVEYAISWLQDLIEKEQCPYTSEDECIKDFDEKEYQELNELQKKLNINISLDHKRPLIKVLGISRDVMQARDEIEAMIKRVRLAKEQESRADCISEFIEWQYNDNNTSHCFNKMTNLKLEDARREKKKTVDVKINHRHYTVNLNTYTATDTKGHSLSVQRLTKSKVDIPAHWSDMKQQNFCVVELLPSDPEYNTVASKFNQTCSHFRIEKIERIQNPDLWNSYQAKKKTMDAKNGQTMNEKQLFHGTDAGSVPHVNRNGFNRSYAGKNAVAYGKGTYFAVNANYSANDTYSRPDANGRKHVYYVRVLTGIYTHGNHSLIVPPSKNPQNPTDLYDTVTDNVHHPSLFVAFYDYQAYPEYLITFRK

Legend:
[1] = target: T1, Protein mono-ADP-ribosyltransferase PARP15 (Homo sapiens) (UniProt Q460N3)
T1 sequence (whole entry): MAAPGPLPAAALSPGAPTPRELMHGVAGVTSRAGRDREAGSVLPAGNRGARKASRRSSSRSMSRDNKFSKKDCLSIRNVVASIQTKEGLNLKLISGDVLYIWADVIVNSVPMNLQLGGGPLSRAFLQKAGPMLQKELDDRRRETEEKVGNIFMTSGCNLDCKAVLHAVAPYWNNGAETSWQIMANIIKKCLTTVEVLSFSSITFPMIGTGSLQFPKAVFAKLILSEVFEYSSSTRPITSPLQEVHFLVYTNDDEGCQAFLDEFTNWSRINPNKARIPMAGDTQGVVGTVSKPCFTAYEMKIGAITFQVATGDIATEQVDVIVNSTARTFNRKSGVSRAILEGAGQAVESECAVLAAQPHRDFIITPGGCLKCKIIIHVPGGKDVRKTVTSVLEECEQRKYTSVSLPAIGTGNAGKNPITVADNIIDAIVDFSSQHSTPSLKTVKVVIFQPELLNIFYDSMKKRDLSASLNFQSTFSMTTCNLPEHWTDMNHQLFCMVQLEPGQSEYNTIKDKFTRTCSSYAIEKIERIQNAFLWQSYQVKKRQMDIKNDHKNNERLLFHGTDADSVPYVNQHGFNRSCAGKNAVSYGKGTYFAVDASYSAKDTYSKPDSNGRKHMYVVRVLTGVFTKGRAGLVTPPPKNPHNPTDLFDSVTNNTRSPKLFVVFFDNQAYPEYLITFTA

[2] = target: Protein mono-ADP-ribosyltransferase PARP14 (Homo sapiens) (UniProt Q460N5)

| Structure (SMILES) | ΔTm [1] [°C] | ΔTm [2] [°C] |
| --- | --- | --- |
| CN1CCN(c2nc3c([nH]2)c(=O)n(C)c(=O)n3C)CC1 | 0.19 | 1.56 |
| Cc1cc(C)c2c(=O)[nH]c(SCC(=O)c3ccccc3)nc2n1 | -0.09 | 2.65 |
| Cn1c(=O)c2[nH]c(NN=C3C(=O)NC(=O)NC3=O)nc2n(C)c1=O | -0.08 | 2.12 |
| Cc1sc2nc(SCC(=O)c3ccc(O)c(O)c3)[nH]c(=O)c2c1C | 0.33 | 1.63 |
| COc1ccc(CCNc2nc3c([nH]2)c(=O)n(C)c(=O)n3C)cc1 | 1.09 | 2.62 |
| N=C1NC(=O)/C(=C/c2ccc(O)c(Cl)c2)S1 | -0.25 | 3.89 |
| Oc1ccccc1-c1n[nH]c(-c2ccccc2O)n1 | -0.34 | 2.65 |
| O=c1[nH]cnc2c1sc1nc(-c3ccccc3)ccc12 | 1.51 | 0.65 |
| COc1ccc(-c2cc3ncnc(O)c3s2)cc1 | 1.49 | 1.11 |
| NC(=O)c1cccc(N2C(=O)c3ccccc3C2=O)c1 | 0.06 | 2.1 |
| O=C(CSc1ncn[nH]1)c1ccc(O)c(O)c1 | -0.05 | 2.28 |
| O=C(Nc1nnc(CSCc2ccccc2)s1)c1ccc(F)cc1 | 0.36 | 1.66 |
| Cn1c(=O)c2[nH]c(NCCc3ccc(Cl)cc3)nc2n(C)c1=O | 0.66 | 3.01 |
| Cc1ccc(SCCNc2nc3c([nH]2)c(=O)n(C)c(=O)n3C)cc1 | 0.09 | 2.11 |
| CC1(C)Cc2ccccc2-c2nc(NN)nc(O)c21 | 1.38 | 2.05 |
